Experimental data from patent publication US20190085024A1, “Alpha-Ketoamide Inhibitors Of Cysteine Proteases” (Phelix Therapeutics, priority 2017, published 2019).

By UniProt entry, the sequences of proteins in these tests, tags left out. Residues count along the entry.
UniProt P07711, 114-333 limits assumed: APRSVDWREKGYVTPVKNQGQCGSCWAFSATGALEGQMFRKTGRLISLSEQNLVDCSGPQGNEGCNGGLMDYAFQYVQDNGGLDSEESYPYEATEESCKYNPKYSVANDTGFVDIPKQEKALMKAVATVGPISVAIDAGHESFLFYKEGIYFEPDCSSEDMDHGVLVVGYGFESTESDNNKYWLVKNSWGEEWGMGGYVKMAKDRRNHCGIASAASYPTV

Columns and labels:
Cathepsin L = Cathepsin L (Homo sapiens, UniProt P07711); assay: Cathepsin L enzyme assay; settings: read-out: Cat L; Ki by Morrison equation; pH 5.5, substrate Z-Phe-Arg-Amc
Description: (§1) Purified peptide was dissolved in DMSO to a concentration of 10 mM then further diluted to 100 μM in DMSO. Stock plates were established with inhibitors at ten concentrations with top concentrations of 10 mM, 1 mM, 100 μM, or 10 μM which were then subsequently halved in DMSO down to bottom concentrations of 9.8 μM, 0.98 μM, 98 nM, or 9.8 nM respectively in DMSO. Alternatively, the stock plate was established with a top inhibitor concentration of 100 μM diluted by thirds with ten concentrations down to a bottom concentration of 65.1 nM in DMSO. Two wells contained DMSO only for controls.
Enzyme was dissolved to 3 nM in 50 mM Sodium Acetate Buffer (pH 5.5), 2.5 mM EGTA, 0.01% Triton X-100, and 5 mM DTT. Substrate, Z-Phe-Arg-Amc, was diluted to 50 μM in buffer. Enzyme/Buffer solution was aliquoted 267 uL per well in one row (12 wells). Using a multichannel pipette 3 μL inhibitor was taken from the stock plate and added to each well, a 1:100 dilution resulting in ten concentrations of inhibitor and two controls, 0 μM inhibitor and dead enzyme. […]
(§2) GraphPad Prism was used for all data analysis. […] Velocity (RFU/sec) was calculated from a straight line fit of the straight portion of the curve. […] Data was then plotted as velocity (μM/sec) vs. inhibitor concentration and analyzed using the Morrison equation that was standard in GraphPad Prism to calculate a Ki.

Calpain = Calpain enzyme assay; settings: read-out: Calpain; Ki by Morrison equation; pH 7.5, 5 mM CaCl2
Description: as §1
Enzyme was dissolved to 25 nM in 50 mM Tris Buffer (pH 7.5), 100 mM NaCl, 1 mM EGTA, 0.015% Brij-35, and 5 mM DTT. Substrate, H-Glu(Edans)-Pro-Leu-Phe-Ala-Glu-Arg-Lys(Dabcyl)-OH, was diluted to 5 μM in buffer with enzyme. Enzyme/Buffer/Substrate solution was aliquoted 267 uL per well in one row (12 wells). […] Two controls were measured, 0 μM inhibitor and no calcium (effectively dead enzyme). […]
as §2

Collagen = assay: Fibrosis-Sirius Red Collagen Assay; type: cell-based; settings: read-out: Fibrosis-Sirius Red Collagen Assay
Cathepsin B = Cathepsin B (Homo sapiens, UniProt P07858); assay: Cathepsin B enzyme assay; settings: read-out: Cat B; Ki by Morrison equation; pH 6.0, substrate Z-Phe-Arg-Amc
SMA = assay: Fibrosis-SMA Elisa; type: cell-based; settings: read-out: Fibrosis-SMA Elisa

- Ki (Cathepsin L): 0.2 nM
- Ki (Calpain): 5.39 nM
- IC50 (Collagen): 2900 nM
- Ki (Cathepsin B): 10.9 nM
- IC50 (SMA): 1100 nM
SMILES: CC[C@H](C)C(NC(=O)[C@H](CC(C)C)NC(=O)OCc1ccccc1)C(=O)C(=O)NCC(=O)N[C@@H](Cc1ccc2ccccc2c1)C(=O)N(C)C (some centres unmarked)
